Earlier results in article PMC10803328 (Scientific Reports, 2024).

The chains behind the UniProt entries cited, without tags or fusion partners. Where a name states a change or a piece, a line headed by the entry shows the natural chain unless it says otherwise.
UniProt P23415: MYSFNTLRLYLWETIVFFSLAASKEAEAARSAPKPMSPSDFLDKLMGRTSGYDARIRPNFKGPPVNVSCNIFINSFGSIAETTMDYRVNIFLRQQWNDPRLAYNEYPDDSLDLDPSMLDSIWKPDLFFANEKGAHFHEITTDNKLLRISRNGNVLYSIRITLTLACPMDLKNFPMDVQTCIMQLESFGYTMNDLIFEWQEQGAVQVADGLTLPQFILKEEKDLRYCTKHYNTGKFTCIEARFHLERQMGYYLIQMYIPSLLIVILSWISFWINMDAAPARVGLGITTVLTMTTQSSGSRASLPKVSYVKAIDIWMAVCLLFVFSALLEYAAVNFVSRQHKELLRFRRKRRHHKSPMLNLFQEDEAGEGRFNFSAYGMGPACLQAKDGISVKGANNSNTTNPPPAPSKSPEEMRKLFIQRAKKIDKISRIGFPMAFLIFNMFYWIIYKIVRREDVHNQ
UniProt P36544: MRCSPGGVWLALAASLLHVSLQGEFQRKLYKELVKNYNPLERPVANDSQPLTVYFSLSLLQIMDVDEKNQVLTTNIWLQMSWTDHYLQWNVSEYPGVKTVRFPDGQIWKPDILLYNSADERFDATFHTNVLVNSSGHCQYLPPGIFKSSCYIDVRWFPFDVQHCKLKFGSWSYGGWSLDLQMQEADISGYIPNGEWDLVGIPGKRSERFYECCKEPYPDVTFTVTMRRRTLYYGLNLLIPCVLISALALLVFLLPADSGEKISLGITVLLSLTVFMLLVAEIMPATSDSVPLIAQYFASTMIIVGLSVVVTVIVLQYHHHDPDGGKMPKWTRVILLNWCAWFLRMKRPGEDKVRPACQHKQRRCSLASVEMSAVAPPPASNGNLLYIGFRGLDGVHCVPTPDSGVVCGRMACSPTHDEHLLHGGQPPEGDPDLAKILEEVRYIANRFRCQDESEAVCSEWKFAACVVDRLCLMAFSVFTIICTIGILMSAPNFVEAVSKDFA

Target: PSAM^4-GlyR (Homo sapiens, UniProt P23415+P36544, L131G/Q139L/Y217F)
Set-up: expressed in transfected cells; method as in PMID 30872534, PMID 24556591, PMID 36279419
Settings: in vitro binding assay, literature; cited from earlier work

Structure (SMILES): c1cnc2cc3c(cc2n1)[C@@H]1CNC[C@H]3C1 [Varenicline, varenicline]
- Ki: 1.3 nM
